Measurements reported in US8785425B2, “11β-hydroxyandrosta-4-ene-3-ones” (Sun Pharma Advanced Research Company Ltd., priority 2006, dated 2014).
Marks after values point to notes of the source that are not given here.

Target: T1, glucocorticoid receptors (Homo sapiens, UniProt P04150)
T1 construct: host or cells: Human HeLa cells
T1 sequence (P04150 1-777): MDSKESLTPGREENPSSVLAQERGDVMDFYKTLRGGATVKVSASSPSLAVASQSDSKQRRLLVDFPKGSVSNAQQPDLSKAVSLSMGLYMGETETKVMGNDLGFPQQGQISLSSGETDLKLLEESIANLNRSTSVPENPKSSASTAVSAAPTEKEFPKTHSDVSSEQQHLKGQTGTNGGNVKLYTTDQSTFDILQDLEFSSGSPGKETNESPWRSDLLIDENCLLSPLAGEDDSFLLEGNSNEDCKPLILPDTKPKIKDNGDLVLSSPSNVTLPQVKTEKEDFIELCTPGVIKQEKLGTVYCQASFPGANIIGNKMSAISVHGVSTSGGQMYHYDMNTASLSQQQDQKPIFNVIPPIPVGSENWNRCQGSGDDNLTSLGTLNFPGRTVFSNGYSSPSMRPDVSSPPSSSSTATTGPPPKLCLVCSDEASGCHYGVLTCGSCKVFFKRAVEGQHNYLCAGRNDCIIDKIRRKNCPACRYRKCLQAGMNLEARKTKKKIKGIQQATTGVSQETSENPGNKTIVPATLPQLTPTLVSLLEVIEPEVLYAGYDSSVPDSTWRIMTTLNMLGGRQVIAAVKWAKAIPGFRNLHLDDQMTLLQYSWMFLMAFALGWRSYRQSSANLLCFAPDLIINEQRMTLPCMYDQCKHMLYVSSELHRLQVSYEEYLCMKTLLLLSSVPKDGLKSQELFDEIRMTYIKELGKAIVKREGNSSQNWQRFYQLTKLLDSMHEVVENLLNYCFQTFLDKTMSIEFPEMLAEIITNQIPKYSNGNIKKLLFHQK
Experiment: Glucocorticoid receptor binding assay ([3H]dexamethasone radioligand)
Details: % inhibition at 10 nM, HeLa cells transfected with glucocorticoid receptors
Description: The steroid receptor binding assay were performed by MDS Pharma Services at their Taipei (Taiwan) pharmacology laboratory.
The activity of test compounds on glucocorticoid receptor was assessed using radioligand binding assays. […] Free [^3H]dexamethasone was removed from the medium by centrifugation and concentration of receptor bound ligand was determined in the supernatant by liquid scintillation counting.
The % inhibition was evaluated using a single concentration of test compound and the corresponding radiolabeled ligand. Results are presented as the percent inhibition of specific binding. The values are average of duplicate determinations for each concentration.

## CCC(=O)O[C@]1(C(=O)SCF)[C@H](C)C[C@H]2[C@@H]3C[C@H](F)C4=CC(=O)C=C[C@]4(C)[C@@]3(F)[C@@H](O)C[C@@]21C [Fluticasone propionate, (S)-fluoromethyl 6α,9α-difluoro-11β-hydroxy-16α-methyl-17α-propionyloxy-3-oxoandrosta-1,4-diene-17β-carbothioate, reference compound]
  Glucocorticoid receptor binding % inhibition: 88^b %
